From patent US20220289753A1, “SHP2 INHIBITORS” (IRBM S.P.A., priority 2019, published 2022)

The chains behind the UniProt entries cited, without tags or fusion partners. Residues count along the entry.
UniProt Q06124, 1-525 limits assumed: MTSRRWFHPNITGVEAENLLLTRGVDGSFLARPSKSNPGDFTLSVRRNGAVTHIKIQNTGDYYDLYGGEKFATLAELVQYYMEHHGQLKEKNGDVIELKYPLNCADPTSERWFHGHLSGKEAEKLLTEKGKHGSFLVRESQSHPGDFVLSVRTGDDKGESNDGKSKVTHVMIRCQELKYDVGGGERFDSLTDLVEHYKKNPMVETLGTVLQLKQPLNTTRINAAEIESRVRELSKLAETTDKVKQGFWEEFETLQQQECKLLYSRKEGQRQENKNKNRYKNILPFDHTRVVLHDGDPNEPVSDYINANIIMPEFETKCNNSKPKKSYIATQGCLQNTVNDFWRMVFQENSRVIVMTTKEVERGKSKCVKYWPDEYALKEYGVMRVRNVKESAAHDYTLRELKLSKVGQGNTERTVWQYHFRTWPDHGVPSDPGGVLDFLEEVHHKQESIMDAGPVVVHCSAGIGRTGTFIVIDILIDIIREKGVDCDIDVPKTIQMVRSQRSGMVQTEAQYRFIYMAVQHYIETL

Legend:
[1] = target: SHP-2 enzyme (Met1-Leu525) (Homo sapiens, UniProt Q06124); assay: SHP2 inhibition enzymatic assay (DiFMUP substrate, IRS1 peptide activation); format: biochemical; details: read-out: SHP2 wt - IC50, activated by 500 nM IRS1 peptide, 75 μM DiFMUP substrate
[2] = test system: ERK phosphorylation in KYSE-520 cells; assay: Phospho-ERK cellular assay (Advanced phospho-ERK1/2 (Thr202/Tyr204) TR-FRET kit); format: cell-based; details: read-out: pERK IC50, 2 h at 37° C.

Structure (SMILES): N[C@@H]1c2nc(Cl)sc2CC12CCN(c1nc3nc(Sc4cccnc4C(F)(F)F)cnc3[nH]1)CC2
- IC50 [1]: < 0.5 µM
- IC50 [2]: < 1 µM
